Source: US20230183243A1, “HETEROARYL DERIVATIVES AND PHARMACEUTICAL COMPOSITION COMPRISING SAME AS ACTIVE INGREDIENT” (VORONOI INC., priority 2019, published 2023)

Protein sequences, listed by entry. Tags and fused reporters are not part of them.
UniProt P33981, whole entry: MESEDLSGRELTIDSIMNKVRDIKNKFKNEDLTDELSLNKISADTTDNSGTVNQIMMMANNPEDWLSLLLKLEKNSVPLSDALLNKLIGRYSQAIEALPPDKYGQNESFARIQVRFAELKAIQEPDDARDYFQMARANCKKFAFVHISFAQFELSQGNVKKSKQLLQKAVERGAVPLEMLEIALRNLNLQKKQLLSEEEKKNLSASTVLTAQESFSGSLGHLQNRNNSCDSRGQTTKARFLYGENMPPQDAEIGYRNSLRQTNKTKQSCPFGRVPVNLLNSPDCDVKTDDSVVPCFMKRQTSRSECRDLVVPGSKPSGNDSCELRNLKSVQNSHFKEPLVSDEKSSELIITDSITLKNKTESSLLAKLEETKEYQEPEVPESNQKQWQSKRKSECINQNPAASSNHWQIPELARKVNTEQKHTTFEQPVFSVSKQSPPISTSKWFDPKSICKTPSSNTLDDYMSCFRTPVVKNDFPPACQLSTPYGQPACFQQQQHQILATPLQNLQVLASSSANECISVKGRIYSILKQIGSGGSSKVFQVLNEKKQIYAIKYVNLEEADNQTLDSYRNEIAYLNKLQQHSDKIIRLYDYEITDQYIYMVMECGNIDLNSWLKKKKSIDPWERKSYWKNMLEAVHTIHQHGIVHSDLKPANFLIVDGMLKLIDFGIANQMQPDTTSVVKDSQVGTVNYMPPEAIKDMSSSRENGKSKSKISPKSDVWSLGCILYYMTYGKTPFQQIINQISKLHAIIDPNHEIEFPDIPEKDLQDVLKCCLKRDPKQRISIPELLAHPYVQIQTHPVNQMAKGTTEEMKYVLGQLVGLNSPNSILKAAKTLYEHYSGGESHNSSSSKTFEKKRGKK

Key:
SHP-77 = experiment: Inhibition of proliferation of small cell lung cancer cells, CellTiter-Glo; conditions: read-out: SHP-77 Activity (GI50); SHP-77, cultured for 5 days
Procedure: Specifically, the following test was performed to evaluate the inhibitory activity of the compound according to the present invention against the cell proliferation in the SCLC cells.
To check an inhibitory ability of cell growth in one SCLC cell line, a test was performed as follows. Cells were seeded in 180 μL of a culture broth at a density of 2,000 to 3,000 cells/well in a white clear bottom 96-well plate (Corning) according to the growth ability of each cell, and then cultured for 24 hours under conditions of 5% CO2 and 37° C. Thereafter, the compound was prepared by diluting a 10 mM stock solution three-fold with 100% DMSO at a total of 12 concentrations so that a peak concentration of the compound was in a range of 10 mM to 0.05 μM, and the diluted compound was then diluted in each cell culture medium so that a final concentration of the compound was in a range of 100 μM to 0.5 nM. […] Then, a degree of luminescence (fluorescence) was measured. A degree of inhibition of the cell growth according to the treatment concentration of each of the compounds was calculated based on the fluorescence of the solvent control cells which were not treated with the compound. […]

human TTK = human TTK (Homo sapiens, UniProt P33981); experiment: TTK enzyme activity, ADP-Glo kinase assay; conditions: read-out: TTK Activity (IC50); purified human TTK, ATP 10 μM, 25° C., 2 hours
MDA-MB-231 cells = experiment: Inhibition of proliferation of triple-negative breast cancer cells, CellTiter-Glo; conditions: read-out: MDA-MB-231 Activity (GI50); MDA-MB-231, cultured for 5 days

GI50 (SHP-77): < 100 nM
IC50 (human TTK): < 50 nM
GI50 (MDA-MB-231 cells): < 100 nM
SMILES: COCCNc1nc(Nc2ccc(-c3cnn(C)c3)c3c2OCCO3)nc2[nH]cc(C#N)c12
